{"source": "patent US9050375B2", "about": "“Bi-specific digoxigenin binding antibodies” (priority 2009, dated 2015)", "system": "AHA1 mRNA in MCF-7 breast cancer cells", "assay": "bDNA quantification after DIG-labeled siRNA-lipid nanoparticles with <Target-DIG> antibodies", "format": "cell-based", "conditions": "no siRNA; 3.24 nM antibody; MCF-7, 12 h", "protocol": "DIG-labeled siRNA-lipid nanoparticles containing 1 pmol of AHA1-, DIG-coupled AHA1-, or luciferase (LUC)-siRNAs were incubated with 3.24 pmol of bispecific antibodies directed against either the tumor-associated LewisY oligosaccharide and DIG <LeY-DIG> or against the sialic acid-binding transmembrane protein, CD22, and DIG <CD22-DIG> or with Dulbecco's Phosphate Buffered Saline (D-PBS) (Invitrogen, Carlsbad, Calif.) in a final volume of 200 μl Opti-MEM® (Invitrogen GmbH, Darmstadt, Germany) at RT for 30 min.\nMCF-7 cells were seeded on a 96-well plate with a density of 15,000 cells/well in 80 μl medium (RPMI 1640 Medium, 10% fetal calf serum, 100 U/ml penicillin/streptomycin; Biochrom AG, Berlin, Germany) and incubated overnight in a cell incubator (37° C., 95% H2O, 5% CO2). Following pre-incubation of DIG-labeled siRNA-lipid nanoparticles with <Target-DIG> bispecific antibodies (see above), 20 μl of the mixtures were added to MCF-7 cells, leading to a final volume of 100 μl containing 1 nM siRNA and no antibodies (no AB) or 1 nM siRNA and 3.24 nM of either <LeY-DIG> (LeY) or <CD22-DIG> (CD22) antibodies. Cells were incubated for 12 hours in a cell incubator. […] After incubation, cells were lysed and AHA1- and GAPDH-mRNA concentrations were quantified using a commercially available bDNA-quantification system (Affymetrix Inc., Fremont, Calif.). […]"}
{"molecule": "CD22-DIG: bispecific antibody against CD22 and DIG; non-targeting control on MCF7 (antibody) heavy: EVQLVESGGGLVKPGGSLKLSCAASGFAFSIYDMSWVRQTPEKRLEWVAYISSGGGTTYYPDTVKGRFTISRDNAKNTLYLQMSSLKSEDTAMYYCARHSGYGSSYGVLFAYWGQGTLVTVSAASTKGPSVFPLAPSSKSTSGGTAALGCLVKDYFPEPVTVSWNSGALTSGVHTFPAVLQSSGLYSLSSVVTVPSSSLGTQTYICNVNHKPSNTKVDKKV[human IgG1 Fc not shown]GGGGSGGGGSQVQLVESGGGLVKPGGSLRLSCAASGFTFSDYAMSWIRQAPGKCLEWVSSINIGATYIYYADSVKGRFTISRDNAKNSLYLQMNSLRAEDTAVYYCARPGSPYEYDKAYYSMAYWGQGTTVTVSSGGGGSGGGGSGGGGSDIQMTQSPSSLSASVGDRVTITCRASQDIKNYLNWYQQKPGKAPKLLIYYSSTLLSGVPSRFSGSGSGTDFTLTISSLQPEDFATYYCQQSITLPPTFGCGTKVEIK light: DIQMTQTTSSLSASLGDRVTISCRASQDISNYLNWYQQKPDGTVKLLIYYTSILHSGVPSRFSGSGSGTDYSLTISNLEQEDFATYFCQQGNTLPWTFGGGTKLEIKRTVAAPSVFIFPPSDEQLKSGTASVVCLLNNFYPREAKVQWKVDNALQSGNSQESVTEQDSKDSTYSLSSTLTLSKADYEKHKVYACEVTHQGLSSPVTKSFNRGEC", "values": [{"measurement": "relative AHA1-mRNA concentration, only antibody", "result": 96.3, "unit": "%"}]}
